From article PMC12264551 (Molecular Pharmacology, 2025)

Target: T1, PAC1R (Homo sapiens, UniProt P41586)
T1 construct: host or cells: COS-7
T1 sequence (P41586 21-468): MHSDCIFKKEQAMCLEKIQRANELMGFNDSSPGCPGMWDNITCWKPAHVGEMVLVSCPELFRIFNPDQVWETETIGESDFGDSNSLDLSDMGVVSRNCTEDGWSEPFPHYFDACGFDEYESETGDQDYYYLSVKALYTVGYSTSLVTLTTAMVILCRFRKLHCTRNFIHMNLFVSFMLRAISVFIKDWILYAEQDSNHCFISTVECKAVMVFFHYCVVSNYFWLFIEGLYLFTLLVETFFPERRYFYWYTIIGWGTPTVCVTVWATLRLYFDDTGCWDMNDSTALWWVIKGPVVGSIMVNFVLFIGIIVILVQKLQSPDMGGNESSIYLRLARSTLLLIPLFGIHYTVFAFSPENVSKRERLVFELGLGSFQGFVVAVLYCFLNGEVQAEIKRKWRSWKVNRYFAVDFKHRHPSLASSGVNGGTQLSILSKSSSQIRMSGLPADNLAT
Experiment: Live cell cAMP accumulation (GloSensor), COS-7 cells transfected with PAC1R
Assay type: cell-based
Settings: PACAP + vehicle, Fig. 6B, fraction of greatest slope, ± SEM, n = 3-5

Normalized Maximum: 0.92 ± 0.02
SMILES: CC[C@H](C)[C@H](NC(=O)CNC(=O)[C@H](CC(=O)O)NC(=O)[C@H](CO)NC(=O)[C@@H](N)Cc1c[nH]cn1)C(=O)N[C@@H](Cc1ccccc1)C(=O)N[C@H](C(=O)N[C@@H](CC(=O)O)C(=O)N[C@@H](CO)C(=O)N[C@@H](Cc1ccc(O)cc1)C(=O)N[C@@H](CO)C(=O)N[C@@H](CCCNC(=N)N)C(=O)N[C@@H](Cc1ccc(O)cc1)C(=O)N[C@@H](CCCNC(=N)N)C(=O)N[C@@H](CCCCN)C(=O)N[C@@H](CCC(N)=O)C(=O)N[C@@H](CCSC)C(=O)N[C@@H](C)C(=O)N[C@H](C(=O)N[C@@H](CCCCN)C(=O)N[C@@H](CCCCN)C(=O)N[C@@H](Cc1ccc(O)cc1)C(=O)N[C@@H](CC(C)C)C(=O)N[C@@H](C)C(=O)N[C@@H](C)C(=O)N[C@H](C(=O)N[C@@H](CC(C)C)C(=O)NCC(=O)N[C@@H](CCCCN)C(=O)N[C@@H](CCCNC(=N)N)C(=O)N[C@@H](Cc1ccc(O)cc1)C(=O)N[C@@H](CCCCN)C(=O)N[C@@H](CCC(N)=O)C(=O)N[C@@H](CCCNC(=N)N)C(=O)N[C@H](C(=O)N[C@@H](CCCCN)C(=O)N[C@@H](CC(N)=O)C(=O)N[C@@H](CCCCN)C(N)=O)C(C)C)C(C)C)C(C)C)[C@@H](C)O [PACAP, pituitary adenylate cyclase–activating peptide]
